Laboratory results published in patent EP0153845A2, “CRF analogs” (THE SALK INSTITUTE FOR BIOLOGICAL STUDIES, priority 1984, dated 1985).

What was measured:
[1] = test system: CRF-induced ACTH secretion; assay: CRF-induced ACTH secretion in intact, non-anesthetized rats; assay type: in vivo
[2] = test system: spontaneous ACTH release; assay: Spontaneous ACTH release by adrenalectomized rats; assay type: in vivo; conditions: iv injection of 3 mg/kg BW (2.7 nmole)
Method: The synthetic CRF antagonists from Examples XLI and XLII are examined for their effects on the secretion of ACTH and B-endorphin in vitro and the synthetic AHC peptide is also examined in vivo. The effectiveness of synthetic CRF antagonists to block the secretion of ACTH and B-endorphin by cultured rat pituitary cells is measured using the procedure as generally set forth in Vale et al., Endocrinology, 91, 562 (1972). In vivo testing is carried out using the general procedure set forth in C. Rivier et al., Science, 218, 377 (1982).
The in vivo effect of CRF antagonists is tested on the spontaneous ACTH release by adrenalectomized rats.

With `CSCC[C@H](NC(=O)[C@H](CCC(=O)O)NC(=O)[C@H](CC(C)C)NC(=O)[C@H](CCSC)NC(=O)[C@H](CCC(=O)O)NC(=O)[C@H](CCCNC(=N)N)NC(=O)[C@H](CC(C)C)NC(=O)[C@H](CC(C)C)NC(=O)[C@H](Cc1c[nH]cn1)NC(=O)[C@H](Cc1ccccc1)NC(=O)[C@@H](NC(=O)[C@H](CC(C)C)NC(=O)[C@@H](N)CC(=O)O)[C@@H](C)O)C(=O)N[C@@H](C)C(=O)N[C@@H](CCCCN)C(=O)N[C@@H](C)C(=O)N[C@@H](CCC(=O)O)C(=O)N[C@@H](CCC(N)=O)C(=O)N[C@@H](CCC(=O)O)C(=O)N[C@@H](C)C(=O)N[C@@H](CCC(=O)O)C(=O)N[C@@H](CCC(N)=O)C(=O)N[C@@H](C)C(=O)N[C@@H](C)C(=O)N[C@@H](CC(C)C)C(=O)N[C@@H](CC(N)=O)C(=O)N[C@@H](CCCNC(=N)N)C(=O)N[C@@H](CC(C)C)C(=O)N[C@@H](CC(C)C)C(=O)N[C@@H](CC(C)C)C(=O)N[C@@H](CCC(=O)O)C(=O)N[C@@H](CCC(=O)O)C(=O)N[C@@H](C)C(N)=O` [AHC (9-41)] as the compound, how does the “dose level at which inhibition of CRF-induced ACTH secretion is significant” value [1] read?
Its value is 0.09 pmol.

What about the “time for which the decrease in plasma ACTH levels is statistically significant” value [2] of the same compound?
The value was 2 h.
